Data on one compound can be found in ChEMBL document CHEMBL2331439 (J Med Chem, 2013).

This experiment deals with RAF proto-oncogene serine/threonine-protein kinase (Homo sapiens, UniProt P04049). Description: Inhibition of recombinant RAF1 (unknown origin) by cascade reaction assay.

For orientation: IC50 means the concentration needed to halve the response being measured. Take `CN1C/C(=C\c2ccccn2)C(=O)/C(=C/c2ccccn2)C1`: the IC50 amounted to 6.5 µM.
